# Assay results as given in patent US20110245173A1, “Long-Acting GLP-1 Derivatives, and Methods of Treating Cardiac Dysfunction” (priority 2008, published 2011).
# Read-outs that look alike come from different tables or passages of the source.
# Assay: Pharmacokinetics in plasma after single bolus intravenous administration to rats
# Assay type: in vivo, Sprague Dawley rats
# Conditions: for half-life / clearance / Cmax / Vd / AUC(0-t) / AUC(0-inf) / Tmax: Time to Cmax: rat, iv; for Vd: read-out: Vdss: Volume of distribution at steady state
# Procedure: GLP-1 (9-36) analogues containing C-terminal extensions (FIG. 2) were tested in 9 week old male Sprague Dawley rats to evaluate biological half-life as well as other pharmacokinetic properties of the analogues. Rats used in the study were acclimated to laboratory conditions for approximately 1 week prior to testing. Polypeptide analogues were prepared as solutions for intravenous administration (bolus injection in the jugular vein) at concentrations of 0.15 mg/mL and 1.5 mg/mL in appropriate buffers. The compounds were then injected while the animals were still under anesthesia. Blood samples were taken form each animal at no more than 5 occasions. Following dose administration, blood samples (0.3 to 0.4 mL) were obtained by jugular venipuncture (lithium heparin was used as an anticoagulant) at selected time points (0, 2.5, 5, 10 and 15 minutes or 30, 45, 60, 120 and 240 minutes). The samples were analyzed for parent drug by LC-MS/MS. Numerical data was subjected to calculation of group mean values, standard deviations and coefficients of variation (expressed as a percent), where appropriate. The pharmacokinetic analysis (non-compartmental) of plasma concentration was performed using the PhAST software program (Version 2.3-004, Pheonix International Life Sciences Inc.). The highest experimental concentration was considered the peak concentration (Cmax; observed value). Whenever possible, the observed terminal phase rate constant (Kel) was calculated from the terminal 3 or more points (non-zero and non-Cmax points) of the log-linear regression. The number of points included in the regression analysis was such as to optimize r^2 value calculated for the regression. Terminal phase half-life (t1/2) was determined by dividing 0.693 by Kel. The area under the plasma concentration of each compound versus time-curve from time zero to the last quantifiable concentration (AUC0-t) was calculated by the linear trapezoidal method (Bailer, A. J., (1988) J. Pharmacokin. Biopharm., 1, 303-309). AUC0-∞, the area under the plasma concentration versus time curve from time zero to infinity, was calculated as the sum of AUC0-t plus the ratio of the last plasma concentration to Kel. Values below the limit of quantification were assigned a value of zero for pharmacokinetic analysis.
# [1] = male, Sprague Dawley, in vivo, 0.15 mg/kg
# [2] = male, Sprague Dawley, in vivo, 1.5 mg/kg
smiles,measurement,setting,value
CC[C@H](C)[C@H](NC(=O)[C@H](Cc1ccccc1)NC(=O)[C@H](CCC(=O)O)NC(=O)[C@H](CCCCN)NC(=O)[C@H](C)NC(=O)[C@H](C)NC(=O)[C@H](CCC(N)=O)NC(=O)CNC(=O)[C@H](CCC(=O)O)NC(=O)[C@H](CC(C)C)NC(=O)[C@H](Cc1ccc(O)cc1)NC(=O)[C@H](CO)NC(=O)[C@H](CO)NC(=O)[C@@H](NC(=O)[C@H](CC(=O)O)NC(=O)[C@H](CO)NC(=O)[C@@H](NC(=O)[C@H](Cc1ccccc1)NC(=O)[C@@H](NC(=O)CNC(=O)[C@@H](N)CCC(=O)O)[C@@H](C)O)[C@@H](C)O)C(C)C)C(=O)N[C@@H](C)C(=O)N[C@@H](Cc1c[nH]c2ccccc12)C(=O)N[C@@H](CC(C)C)C(=O)N[C@H](C(=O)N[C@@H](CCCCN)C(=O)NCC(=O)N[C@@H](CCCNC(=N)N)C(=O)N1CCC[C@H]1C(=O)N[C@@H](CO)C(=O)N[C@@H](CO)C(N)=O)C(C)C [DGS72],Kel: Elimination rate constant,"0.15 mg/kg single i.v. bolus, male Sprague Dawley rats, plasma",0.139 min⁻¹
same,Kel: Elimination rate constant,"1.5 mg/kg single i.v. bolus, male Sprague Dawley rats, plasma",0.071 min⁻¹
same,half-life,"in vivo, 0.15 mg/kg, 0.15 mg/kg single i.v. bolus, male Sprague Dawley rats, plasma, read-out: T1/2: Terminal phase half-life",4.99 min
same,half-life,"in vivo, 1.5 mg/kg, 1.5 mg/kg single i.v. bolus, male Sprague Dawley rats, plasma, read-out: T1/2: Terminal phase half-life",9.72 min
same,half-life,"in vivo, 1.5 mg/kg, range over the 0.15 and 1.5 mg/kg i.v. groups, rats, summary of Table 1, read-out: half-life",4.99 to 9.72 min
same,clearance,"in vivo, 0.15 mg/kg single i.v. bolus, male Sprague Dawley rats, plasma, read-out: CL: Clearance",14.4 mL/min/kg
same,Cmax,"in vivo, 0.15 mg/kg single i.v. bolus, male Sprague Dawley rats, plasma, read-out: Cmax: The highest observable concentration",2100 ng/mL
same,Vd,"in vivo, 0.15 mg/kg single i.v. bolus, male Sprague Dawley rats, plasma",0.0882 L/kg
same,clearance,"in vivo, 1.5 mg/kg single i.v. bolus, male Sprague Dawley rats, plasma, read-out: CL: Clearance",13.6 mL/min/kg
same,Cmax,"in vivo, 1.5 mg/kg single i.v. bolus, male Sprague Dawley rats, plasma, read-out: Cmax: The highest observable concentration",19300 ng/mL
same,Vd,"in vivo, 1.5 mg/kg single i.v. bolus, male Sprague Dawley rats, plasma",0.0847 L/kg
same,AUC(0-t),"0.15 mg/kg single i.v. bolus, male Sprague Dawley rats, plasma, read-out: AUC0-t: area under the plasma concentration versus time-curve from time zero to last time point (converted)",171 ng·h/mL
same,AUC(0-inf),"0.15 mg/kg single i.v. bolus, male Sprague Dawley rats, plasma, read-out: AUC0-∞: area under the plasma concentration versus time curve from time zero to infinity (converted)",173 ng·h/mL
same,AUC(0-t),"1.5 mg/kg single i.v. bolus, male Sprague Dawley rats, plasma, read-out: AUC0-t: area under the plasma concentration versus time-curve from time zero to last time point (converted)",1840 ng·h/mL
same,AUC(0-inf),"1.5 mg/kg single i.v. bolus, male Sprague Dawley rats, plasma, read-out: AUC0-∞: area under the plasma concentration versus time curve from time zero to infinity (converted)",1840 ng·h/mL
CC[C@H](C)[C@H](NC(=O)[C@H](Cc1ccccc1)NC(=O)[C@H](CCC(=O)O)NC(=O)[C@H](CCCCN)NC(=O)[C@H](C)NC(=O)[C@H](C)NC(=O)[C@H](CCC(N)=O)NC(=O)CNC(=O)[C@H](CCC(=O)O)NC(=O)[C@H](CC(C)C)NC(=O)[C@H](Cc1ccc(O)cc1)NC(=O)[C@H](CO)NC(=O)[C@H](CO)NC(=O)[C@@H](NC(=O)[C@H](CC(=O)O)NC(=O)[C@H](CO)NC(=O)[C@@H](NC(=O)[C@H](Cc1ccccc1)NC(=O)[C@@H](NC(=O)CNC(=O)[C@@H](N)CCC(=O)O)[C@@H](C)O)[C@@H](C)O)C(C)C)C(=O)N[C@@H](C)C(=O)N[C@@H](Cc1c[nH]c2ccccc12)C(=O)N[C@@H](CC(C)C)C(=O)N[C@H](C(=O)N[C@@H](CCCCN)C(=O)NCC(=O)N[C@@H](CCCNC(=N)N)C(=O)N1CCC[C@H]1C(=O)N[C@@H](CO)C(=O)N[C@@H](CO)C(=O)NCC(=O)N[C@@H](C)C(=O)N1CCC[C@H]1C(=O)N1CCC[C@H]1C(=O)N1CCC[C@H]1C(=O)N[C@@H](CO)C(N)=O)C(C)C [DGS71],AUC(0-inf),[1],320 ng·h/mL
same,AUC(0-t),[1],307 ng·h/mL
same,AUC(0-inf),[2],2830 ng·h/mL
same,AUC(0-t),[2],2810 ng·h/mL
same,Cmax,"in vivo, 0.15 mg/kg",1920 ng/mL
same,Tmax: Time to Cmax,"in vivo, 0.15 mg/kg",2.50 min
same,clearance,"in vivo, 0.15 mg/kg",7.81 mL/min/kg
same,half-life,"in vivo, 0.15 mg/kg, T1/2: Terminal phase half-life",13.6 min
same,Cmax,"in vivo, 1.5 mg/kg",15300 ng/mL
same,Tmax: Time to Cmax,"in vivo, 1.5 mg/kg",2.50 min
same,clearance,"in vivo, 1.5 mg/kg",8.84 mL/min/kg
same,half-life,"in vivo, 1.5 mg/kg, T1/2: Terminal phase half-life",18.3 min
same,half-life,"in vivo, 1.5 mg/kg, half-life",13.6 to 18.3 min
